Source: PubChem
Hits are enriched below; roughly 16% of the tested compounds scored in any of these assays.
TDP1 cell noCPT – qHTS for Inhibitors of human tyrosyl-DNA phosphodiesterase 1 (TDP1): qHTS in cells in absence of CPT; Potency, µM (doses to about 46.2 µM), for inactives: top-dose activity change, negative = growth inhibition, hits mostly inhibitors; DT40 Tdp1-/- hTDP1 cells, no CPT, ATP luminescence, 48 h; hit rate 15% among 420,000; AID 686978, 2013; note: potency is the fitted concentration of half-maximal effect; % is set by controls: 0 for no effect and ±100 for the full control effect; nearly all actives have a fitted effect of over 55% in size
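Readout: luminescence from CellTiter-Glo after 30 min in the dark at RT. Cells: DT40 Tdp1-/- with stable hTDP1, 400/well. Exposure: compounds alone, ≥48 hr, 37 °C.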
miR-21 FLuc – miR-21 reporter, rising signal; HeLa miR-21 FLuc reporter, luciferase, 48 h; Potency, µM (titrated, usually from 38.3 µM), for the others: at the top dose reporter change, positive = more light; 340,000 tested, under 10 active; AID 2288; active = well fitted rising curve with a large enough effect; inconclusive = small, poorly fitted or top-dose-only effect; inactive = no such curve, though single readings can be large or run the other way;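 also: % of control where 0% means no effect; miR-21 action dims this reporter so a rising signal means less miR-21 action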
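HeLa miR-21-FLuc reporter line, endogenous miR-21; 2000 cells/well in DMEM/10% FBS; compound titration up to ~40uM final, 48 h, 37 degree Celsius; luciferase detection reagent, 15 min lysis, CCD luminescence.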
TDP1 block – inhibitors of human tyrosyl-DNA phosphodiesterase TDP1. Q9NUW8. recombinant TDP1, AlphaScreen DNA substrate cleavage. Potency, µM (series often up to 130 µM), for inactives: at the highest dose activity change, negative = inhibition, most hits filed as inhibitors. hit rate 0.28% among 350,000. AID 485290; note: potency is the fitted concentration of half-maximal effect; % is set by controls: 0 for no effect and ±100 for the full control effect; nearly all actives have a fitted effect of over 40% in size
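AlphaScreen read-out: signal falls as enzyme removes the 3' tyrosine-FITC from a 5'-biotinylated DNA oligo (15 nM, 5 min, RT). Enzyme was E. coli-made recombinant Tdp1 at 1 nM, exposed to compound for 15 min beforehand; beads 10 ug/ml, 10 min.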
uPA surface inh – cell surface uPA generation inhibition | hit rate 0.31% among 330,000 | cell surface uPA generation assay, qHTS | Potency, µM (doses to about 38.3 µM), inactives show at the top dose activity change, negative = inhibition, actives largely listed as inhibitors; active = well fitted inhibition curve with a large enough effect; inconclusive = small, poorly fitted or top-dose-only effect; inactive = no such curve, though single readings can be large or run the other way; tested in mouse RAW 264.7 cells; note: potency is the fitted concentration of half-maximal effect; % is set by controls: 0 for no effect and ±100 for the full control effect; nearly all actives have a fitted effect of over 55% in size
DT40 TDP1 CPT – DT40-hTDP1 cell growth loss with CPT; hit rate 12% among 420,000; chicken DT40 Tdp1-/-;hTDP1 cells + 20 nM CPT, ATP luminescence, 48 h; Potency, µM (series often up to 46.2 µM), inactives show at the top dose activity change, negative = growth inhibition, usual class: inhibitors; note: potency is the fitted concentration of half-maximal effect; % is set by controls: 0 for no effect and ±100 for the full control effect; nearly all actives have a fitted effect of over 55% in size
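Cell growth measured by CellTiter-Glo luminescence after a minimum 48 h, 37 C compound exposure with 20 nM CPT in Tdp1-knockout DT40 cells stably expressing hTDP1, seeded 400/well; qHTS titration format.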
Starred values were filed as active, the others as inactive; [ ] = dose if it differs, or a comment. Unless noted, calls come from the whole dose curve; as a rule, active = well fitted curve in the direction sought with a large enough effect; inconclusive = small, poorly fitted or top-dose-only effect, or another doubt; inactive = no such curve, though single readings can be large; an effect the other way counts as inactive or inconclusive.

A first look:
Results for CCc1nc(SCC(=O)Nc2ccc([N+](=O)[O-])cc2)n[nH]1 ?
TDP1 cell noCPT: 21%; miR-21 FLuc: 1%; TDP1 block: 3%[56.1 µM]; uPA surface inh: 0%; DT40 TDP1 CPT: -9%

Results for CCOc1ccc(/C=C/c2nc(C#N)c(Nc3ccc(OCC)cc3)o2)cc1 ?
TDP1 cell noCPT: 23µM*; miR-21 FLuc: -4%; TDP1 block: 5%; DT40 TDP1 CPT: 23µM*

What do the screens show for `CN(/N=C/c1cccnc1)c1cnn(-c2ccc(F)c(Cl)c2)c(=O)c1Cl`?
TDP1 cell noCPT: -9%; miR-21 FLuc: -19%; TDP1 block: -2%; uPA surface inh: -4%; DT40 TDP1 CPT: -26%

How did CN(/N=C/c1c[nH]c2ccccc12)c1cnn(-c2ccc(F)c(Cl)c2)c(=O)c1Cl do in these assays?
TDP1 cell noCPT: 26µM*; miR-21 FLuc: -1%; TDP1 block: 2%; uPA surface inh: -2%; DT40 TDP1 CPT: 26µM*

The listing, repeating the preview:
Results for CCc1nc(SCC(=O)Nc2ccc([N+](=O)[O-])cc2)n[nH]1 ?
TDP1 cell noCPT: 21%; miR-21 FLuc: 1%; TDP1 block: 3%[56.1 µM]; uPA surface inh: 0%; DT40 TDP1 CPT: -9%

Results for CCOc1ccc(/C=C/c2nc(C#N)c(Nc3ccc(OCC)cc3)o2)cc1 ?
TDP1 cell noCPT: 23µM*; miR-21 FLuc: -4%; TDP1 block: 5%; DT40 TDP1 CPT: 23µM*

What do the screens show for `CN(/N=C/c1cccnc1)c1cnn(-c2ccc(F)c(Cl)c2)c(=O)c1Cl`?
TDP1 cell noCPT: -9%; miR-21 FLuc: -19%; TDP1 block: -2%; uPA surface inh: -4%; DT40 TDP1 CPT: -26%

How did CN(/N=C/c1c[nH]c2ccccc12)c1cnn(-c2ccc(F)c(Cl)c2)c(=O)c1Cl do in these assays?
TDP1 cell noCPT: 26µM*; miR-21 FLuc: -1%; TDP1 block: 2%; uPA surface inh: -2%; DT40 TDP1 CPT: 26µM*

How did COc1cc(C(=O)OCc2cccc(OC)c2OC)ccc1OCC(=O)N1CCOCC1 do in these assays?
TDP1 cell noCPT: 3%; TDP1 block: 0%; uPA surface inh: inconclusive; DT40 TDP1 CPT: -28%

Results for CCOc1cc(C(=O)Nc2ccccc2N2CCOCC2)ccc1OCC(=O)N1CCOCC1 ?
TDP1 cell noCPT: inconclusive; TDP1 block: 2%; uPA surface inh: 3%; DT40 TDP1 CPT: inconclusive

Results for CCOc1cc(C(=O)OC(C(=O)NC(=O)NC)c2ccccc2)ccc1OCC(=O)N1CCOCC1 (configuration not stated) ?
TDP1 cell noCPT: 18µM*; TDP1 block: 0%; uPA surface inh: 3%; DT40 TDP1 CPT: 18µM*

Results for COc1cc(C(=O)OC(C)c2ccc(F)cc2)ccc1OCC(=O)N1CCOCC1 (configuration not stated) ?
TDP1 cell noCPT: 23µM*; TDP1 block: 1%; uPA surface inh: 10%; DT40 TDP1 CPT: inconclusive

Results for NS(=O)(=O)c1ccc(Nc2nc(-c3ccc(F)cc3)cs2)cc1 ?
TDP1 cell noCPT: 21µM*; miR-21 FLuc: 0%; TDP1 block: 7%; uPA surface inh: -2%; DT40 TDP1 CPT: 18µM*

What do the screens show for `Cc1cccc(Nc2nc(-c3ccc(F)cc3)cs2)n1`?
TDP1 cell noCPT: inconclusive; miR-21 FLuc: -36%; TDP1 block: 7%; uPA surface inh: 2%; DT40 TDP1 CPT: 12µM*

How did Cc1cccc(Nc2nc(-c3cccs3)cs2)n1 do in these assays?
TDP1 cell noCPT: 23µM*; miR-21 FLuc: -17%; TDP1 block: 1%; uPA surface inh: -2%; DT40 TDP1 CPT: inconclusive

How did CC(=O)Nc1ccc(-c2csc(Nc3ccc(S(N)(=O)=O)cc3)n2)cc1 do in these assays?
TDP1 cell noCPT: -4%; miR-21 FLuc: 1%; TDP1 block: 0%; uPA surface inh: 6%; DT40 TDP1 CPT: 9%

How did Cc1cccc(Nc2nc(-c3ccccn3)cs2)n1 do in these assays?
TDP1 cell noCPT: 6.5µM*; miR-21 FLuc: 15%; TDP1 block: 12%; DT40 TDP1 CPT: 5.2µM*

What do the screens show for `c1ccc(Nc2nc(-c3cccs3)cs2)nc1`?
TDP1 cell noCPT: inconclusive; miR-21 FLuc: -7%; TDP1 block: 9%[56.1 µM]; uPA surface inh: -6%; DT40 TDP1 CPT: inconclusive

Results for COc1ccc(-c2csc(Nc3cccc(C)n3)n2)cc1 ?
TDP1 cell noCPT: inconclusive; miR-21 FLuc: -35%; TDP1 block: 5%; uPA surface inh: -3%; DT40 TDP1 CPT: inconclusive

Results for CC(=O)Oc1ccc(-c2csc(Nc3cccc(C)n3)n2)cc1 ?
TDP1 cell noCPT: inconclusive; miR-21 FLuc: -62%; TDP1 block: 4%; uPA surface inh: -5%; DT40 TDP1 CPT: inconclusive

Results for Cc1cccnc1Nc1nc(-c2ccccn2)cs1 ?
TDP1 cell noCPT: 0.15µM*; miR-21 FLuc: 18%; TDP1 block: 12%; uPA surface inh: -2%; DT40 TDP1 CPT: 0.13µM*

How did Fc1ccc(-c2csc(Nc3ccccn3)n2)cc1 do in these assays?
TDP1 cell noCPT: inconclusive; miR-21 FLuc: -18%; TDP1 block: 7%; uPA surface inh: inconclusive; DT40 TDP1 CPT: 16µM*

How did CC(=O)Oc1ccc(-c2csc(Nc3ccccn3)n2)cc1 do in these assays?
TDP1 cell noCPT: 7.3µM*; DT40 TDP1 CPT: 16µM*

What do the screens show for `CC(C)OCCCNC(=O)C1CC(=O)N(CCc2ccc(F)cc2)C1` (configuration not stated)?
TDP1 cell noCPT: -11%; miR-21 FLuc: 5%; uPA surface inh: 2%; DT40 TDP1 CPT: 19%

How did COc1cc(OC)cc(C(=O)OCC(=O)NC(C)CCc2ccccc2)c1 (configuration not stated) do in these assays?
TDP1 cell noCPT: inconclusive; miR-21 FLuc: 2%; TDP1 block: -5%; uPA surface inh: -3%; DT40 TDP1 CPT: -11%

How did COc1ccc(Nc2c([N+](=O)[O-])ccc3c2=NC2(CCCCC2)N=3)cc1 do in these assays?
TDP1 cell noCPT: 21µM*; miR-21 FLuc: -10%; TDP1 block: 12%; uPA surface inh: -12%; DT40 TDP1 CPT: inconclusive

How did CSCc1c(C(=O)Nc2ccccc2N2CCOCC2)oc2ccccc12 do in these assays?
TDP1 cell noCPT: 7.3µM*; TDP1 block: 2%; uPA surface inh: -5%; DT40 TDP1 CPT: 16µM*

Results for CN1CCN(c2ccc(NC(=O)c3cc4ccccc4o3)cc2)CC1 ?
TDP1 cell noCPT: inconclusive; miR-21 FLuc: -71%; uPA surface inh: inconclusive; DT40 TDP1 CPT: -26%

Results for O=C(NC(=S)N1CCOCC1)c1cc2ccccc2o1 ?
TDP1 cell noCPT: 12µM*; miR-21 FLuc: -36%; TDP1 block: 5%; uPA surface inh: 3%; DT40 TDP1 CPT: 6.5µM*

How did O=C(c1cc2ccccc2o1)N1CCOCC1 do in these assays?
TDP1 cell noCPT: 8%; TDP1 block: 0%; uPA surface inh: -4%; DT40 TDP1 CPT: 1%

How did O=C(Nc1ccc(N2CCN(C(=O)c3ccccc3)CC2)cc1)c1cc2ccccc2o1 do in these assays?
TDP1 cell noCPT: 5.2µM*; miR-21 FLuc: 23%; TDP1 block: 7%; uPA surface inh: 5%; DT40 TDP1 CPT: 6.5µM*

How did CSCc1c(C(=O)Nc2ccc(N3CCOCC3)cc2)oc2ccccc12 do in these assays?
TDP1 cell noCPT: -24%; miR-21 FLuc: -2%; TDP1 block: 1%; uPA surface inh: 5%; DT40 TDP1 CPT: -18%

What do the screens show for `O=C(Nc1ccccc1N1CCCC1)c1cc2ccccc2o1`?
TDP1 cell noCPT: inconclusive; miR-21 FLuc: -37%; TDP1 block: 8%; uPA surface inh: -6%; DT40 TDP1 CPT: inconclusive

What do the screens show for `O=C(Nc1ccccc1N1CCOCC1)c1cc2ccccc2o1`?
TDP1 cell noCPT: -26%; miR-21 FLuc: -7%; TDP1 block: 7%; uPA surface inh: 1%; DT40 TDP1 CPT: 16µM*
